## Binding of CDR-mutated scFvs to a peptide of the spike HR2 region

Values reported by Li et al. 2023, doi:10.1038/s41467-023-39022-2 (FLAb copy).

Antigen: PDVDLGDISGINAS, a 14-residue peptide of the SARS-CoV-2 spike HR2 region.

The variants keep the heavy chain, the linker and the frameworks of Ab-14 (scFv order VH, a 15-residue (Gly4Ser)3 linker, VL).
VH: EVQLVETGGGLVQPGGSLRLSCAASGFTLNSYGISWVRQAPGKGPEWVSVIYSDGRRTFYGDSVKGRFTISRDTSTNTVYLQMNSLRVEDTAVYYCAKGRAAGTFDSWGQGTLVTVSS
VL: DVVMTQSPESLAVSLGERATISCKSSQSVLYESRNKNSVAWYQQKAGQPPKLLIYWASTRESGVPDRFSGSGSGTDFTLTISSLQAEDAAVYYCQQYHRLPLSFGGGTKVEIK

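The starting antibody came from a phage panning campaign against this peptide. These sequences belong to a second round, designed from the earlier measurements on random variants of the parent. Several design methods are mixed in this list. AlphaSeq pools MATa yeast showing the antibodies with MATalpha yeast showing the peptide. Pairs that bind mate more often; barcode pairs of the diploids are counted by sequencing. Read counts were normalised to the haploid input and turned into Kd by a linear fit to BCL2-family pairs of known affinity, for each replicate. Mating was done six times.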

The parent's light chain CDRs are KSSQSVLYESRNKNSVA, WASTRES, QQYHRLPLS; each variant's own CDRs replace them letter for letter. This list holds designs with at most six substitutions. The read-out is the apparent dissociation constant on a log10 scale (nM): the lower, the stronger. The mean shown is taken over the replicates in which the pair was detected. "ND" means that the variant was in the library but no mating with the target was seen in that replicate; the authors take this as a sign of poor binding, and no number exists. The authors' rule: three or more of the six replicates give a measured affinity, fewer mean a poor binder. The parent sequence was in this pool as ten entries: three were never detected, three once, and four in most replicates, with averages from 0.34 to 2.37. As a blank, each scFv also met three strains without target: over all light chain designs, 4% of these pairings were detected, typically at 2.64 and seldom below 1.59. The range of this assay differs from that of the first round, and the authors advise against merging the two.

With KLSQSVLYESRNKNSVA / NASTREC / QQYHRLPLS the result was -0.51, -0.30, -0.40, -0.46, -0.38, -0.40 (mean -0.41). Variant KSSQSVLYESRNSNSVA / DASTRES / QQYHRLPLS gave 0.35, 0.29, 0.20, 0.20, 0.19, 0.42 (mean 0.28). Variant KLSQSVLYESRNKQSVA / NASTRES / QQYHRLPLS gave -0.37, -0.44, -0.51, -0.65, -0.52, -0.32 (mean -0.47). Variant KLEGSQLYESRNKNSVA / NASTRES / QQYHRLPLS gave 0.34, 0.16, 0.33, 0.22, 0.03, 0.35 (mean 0.24). Variant KSSKSVKFESRNKNSVA / DASTRES / QQYHRLPLS gave 0.77, 1.11, 0.65, 0.50, 0.31, 0.69 (mean 0.67).

Variant KIIQSVLYESRNKNSVA / WASTRES / QQYHRIQLS showed ND, ND, ND, 0.11, 1.07, 0.57 (mean 0.58). With KVSWSELYESRNKNSVA / EASTRES / QQYHRLPLS the result was -0.52, -0.34, -0.30, -0.67, -0.67, -0.36 (mean -0.48). Variant KLSQSVEYESRNKNSVA / EASTREY / QAYHRLPLA showed 0.44, 0.28, 0.54, 0.12, 0.35, 0.56 (mean 0.38). With KSSQSVLYESEDKNSVA / WASTRES / QQYHRLPLS the result was 1.59, 2.99, 1.52, 2.32, 2.97, 2.02 (mean 2.24). With KVPQSNLYESRNKNSVA / NASTRES / QQYHRLPLS the result was -0.04, -0.25, -0.26, -0.22, -0.20, -0.17 (mean -0.19).

Variant KVSQSWLYESRNKNSVA / HASTREQ / QQYHRLPLS showed -0.18, -0.19, -0.31, -0.37, -0.15, -0.13 (mean -0.22). For KSSQSVLEESRNKNSVA / WASTRES / QQYHRLILS, the assay gave ND, ND, ND, ND, ND, ND. Variant KLSQSWLYESRNKNNVA / NASQRES / QDYHRLPLS showed -0.38, -0.55, -0.64, -0.72, -0.66, -0.60 (mean -0.59). With SSSQSWLYESRNKNSVA / GASTRES / QQYHRLPLS the result was 1.32, 2.01, 0.98, 1.48, 0.96, 1.60 (mean 1.39). Variant KVLQSVVYEGRNKNSVA / HASTREQ / QQYHRLPLS gave 0.39, 0.21, 0.17, -0.11, 0.09, 0.49 (mean 0.21).

Variant KSLQSWLYESRNFNSVA / HASTRED / QQYHRLPLS gave 0.39, 0.18, 0.50, -0.06, ND, ND (mean 0.25). With KSSQSWLYESRNKNSVA / GASTRES / QVYHRLPLS the result was 1.75, 1.58, 1.30, 1.78, 1.48, 1.43 (mean 1.55). For KSSQSIFNELRNKNSVA / KASTRES / QEYHRLPLS, the assay gave 1.16, 1.00, 0.64, 0.56, 0.98, 0.92 (mean 0.88). Variant KSSQSVLYESRNKVSVA / WASTRES / QQYHRLPLS gave ND, ND, ND, ND, ND, ND. Variant KSSQSVLYESRNKNSVA / QASERES / QQYHRLPLL gave 0.76, 0.94, 2.20, -0.26, 0.79, 0.42 (mean 0.81).

For KSACGVLYESRNKNSVA / GASTRES / QQYHRLPLS, the assay gave 0.65, 0.52, 0.02, 0.19, 0.37, 0.48 (mean 0.37). With KIPQSVLYESRNKNSVA / WASTRES / QQYHRLPLS the result was 0.86, 1.40, 0.75, 1.10, 0.78, 0.68 (mean 0.93). Variant KLSQSDLYESRMKNSVA / DASTRES / QQYHRLPLS gave -0.13, -0.34, -0.52, -0.18, -0.63, -0.23 (mean -0.34). Variant KVSQSVLTTSRNKNSVA / MASTRES / QQYHRLPLS showed 0.53, 1.35, 1.70, 0.71, 0.26, 0.79 (mean 0.89). Variant KVSQSGLYESRNKNNVA / NASTRES / QQYHRLPLS gave 0.50, 0.26, 0.36, 0.28, 0.49, 0.02 (mean 0.32).

For KSSQSVLYESFNKNSVA / WATTRES / QTYHRLPLS, the assay gave ND, 3.23, 1.97, ND, 3.28, ND (mean 2.83). For KGSQPCLYESRNKNSVA / SASTRES / QQYHRLPKS, the assay gave ND, ND, ND, ND, ND, ND. For KLSQSVLYESRNKNSVA / NASTRMD / QQYHRLPLS, the assay gave -0.25, -0.34, -0.40, -0.46, -0.42, -0.17 (mean -0.34). For KDSQSVLYESRNINSVA / ELSIRES / QQYHRLPLS, the assay gave 1.99, 2.31, ND, 2.68, 3.30, 2.52 (mean 2.56). With KSSQSVLYESRNKNSVA / WASTAES / QQYHRLPLS the result was ND, ND, ND, ND, ND, 1.92.

Variant KLEQSQLYESRNKNSVA / NASTRED / QQYHRLPLS showed 0.13, 0.12, -0.17, 0.09, -0.19, 0.01 (mean 0.00). With KVSQSFLYEQRNKNSVA / EASTRES / QQYHRLPLS the result was 0.31, -0.01, -0.32, -0.13, -0.18, 0.29 (mean -0.01). Variant KFSQSFLYESRNKNSVA / EASQRES / QQYHRLPLS gave -0.74, -0.64, -0.67, -0.75, 0.03, -0.51 (mean -0.55). Variant KMSQSVLYESRNKNSVA / NASTREM / QQYHRLPLS gave -0.15, 0.06, -0.24, -0.24, -0.15, -0.14 (mean -0.14). Variant KSSQSVLYESGNKNSVA / WASTRES / QQYHRLELS gave ND, ND, ND, ND, ND, 3.84.

Variant KSSQSVWYESRNKNSVA / WASKRED / YQYHRLPLS gave ND, ND, ND, ND, ND, ND. For KFSQSVLYESRDSNRVA / NASTRES / QQYHRLPLS, the assay gave 0.18, -0.08, 0.29, 0.14, 0.22, 0.07 (mean 0.14). Variant KVSQSQLYESGTKNSVA / NASSRES / QQYHRLPLS showed 0.41, 0.43, 0.43, 0.34, 0.26, 0.48 (mean 0.39). Variant KSSWSVLLESRNKNSVA / DASTRSS / QQYHRLPLS gave 0.32, 0.12, 0.16, 0.12, 0.22, 0.19 (mean 0.19). Variant KSDQGVLYESRNKNHVA / GASTRES / QQYHRLPLS showed 0.27, 0.01, 0.13, 0.06, -0.03, 0.08 (mean 0.09).

Variant KSSESVLFESRNKNSVA / NASTRES / QQYHRLPLS showed 0.85, 0.85, 0.89, 0.56, 0.84, 1.03 (mean 0.84). For KFSQSWLYESRNKNSVA / NASTRES / QQYHRLPLM, the assay gave 0.02, -0.11, -0.30, -0.25, -0.36, -0.02 (mean -0.17). Variant KSSQSVLYESQNYNSVA / WASTRES / QQYHRLPLS showed ND, 3.13, 2.23, ND, 3.31, 2.71 (mean 2.85).

Extract of 2 entries:

CDR-L1,CDR-L2,CDR-L3,"replicates, log10 nM",mean log10 Kd (nM)
KSSQSVLYESEDKNSVA,WASTRES,QQYHRLPLS,"1.59, 2.99, 1.52, 2.32, 2.97, 2.02",2.24
KVPQSNLYESRNKNSVA,NASTRES,QQYHRLPLS,"-0.04, -0.25, -0.26, -0.22, -0.20, -0.17",-0.19